Source: PMC6484532 (Slas Discovery, 2019)

Chains of the proteins cited; added tags and fusions are not shown. Lines headed by an entry give the natural chain unless they say otherwise; changes in a name come on top.
UniProt O76290: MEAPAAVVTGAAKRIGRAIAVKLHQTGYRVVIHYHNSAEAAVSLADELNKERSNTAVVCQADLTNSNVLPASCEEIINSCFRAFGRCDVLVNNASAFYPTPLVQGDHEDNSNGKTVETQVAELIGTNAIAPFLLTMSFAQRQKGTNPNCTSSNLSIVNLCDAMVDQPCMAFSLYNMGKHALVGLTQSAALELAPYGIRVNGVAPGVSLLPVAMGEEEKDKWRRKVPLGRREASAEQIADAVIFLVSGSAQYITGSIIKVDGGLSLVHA

Biological target: Trypanosoma brucei pteridine reductase 1 (TbPTR1) (Trypanosoma brucei, UniProt O76290)
Assay: cytochrome c-coupled kinetic absorbance assay
Assay type: biochemical

For CCc1nc(N)nc(N)c1-c1ccc(Cl)cc1 [pyrimethamine], the IC50 was 16.7 ± 5 nM.
